According to PubChem BioAssay AID2280 (The Scripps Research Institute Molecular Screening Center, 2010):
Only a part is listed here, and it is no random draw. Active and inactive are the calls of the source.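 The calls were made as follows: active = percent inhibition above a per-plate cutoff, the plate mean of test compounds plus 3 SD (cut at about 30% in these data); inactive = the rest.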

Protein sequences, listed by entry. Tags and fused reporters are not part of them.
UniProt Q17339, whole entry: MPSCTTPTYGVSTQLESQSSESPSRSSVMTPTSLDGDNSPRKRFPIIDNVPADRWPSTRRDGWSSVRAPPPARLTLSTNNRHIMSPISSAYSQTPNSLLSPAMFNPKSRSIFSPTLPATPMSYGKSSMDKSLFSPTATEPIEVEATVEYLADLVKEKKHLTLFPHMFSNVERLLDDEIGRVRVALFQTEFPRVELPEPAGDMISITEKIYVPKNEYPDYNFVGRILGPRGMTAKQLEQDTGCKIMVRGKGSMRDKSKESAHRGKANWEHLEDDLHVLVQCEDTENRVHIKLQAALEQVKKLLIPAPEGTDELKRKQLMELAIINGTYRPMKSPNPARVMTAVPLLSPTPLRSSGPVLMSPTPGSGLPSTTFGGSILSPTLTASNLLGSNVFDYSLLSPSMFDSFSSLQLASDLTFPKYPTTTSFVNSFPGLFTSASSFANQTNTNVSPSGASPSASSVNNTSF

The molecules below were run against Female germline-specific tumor suppressor gld-1 (Caenorhabditis elegans) (UniProt Q17339) (assay: GLD-1/TGE RNA complex disruptors, primary screen, biochemical, fluorescence polarization (AID 2280;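 also: 0% = DMSO wells with GLD-1 and probe and 100% = wells lacking GLD-1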)). Conditions: purified GLD-1 + fluorescein TGE RNA, at 5.96 µM, active compounds read high.

SMILES | inhibition
O=C(NCC1(N2CCCCC2)CCCCC1)c1ccc(=O)[nH]c1 | inactive: 4.78%
O=C(NCC1(N2CCCCC2)CCCCC1)c1cccs1 | inactive: -0.54%
COc1ccc(C(=O)NCC2(N3CCCCC3)CCCCC2)cc1 | inactive: -3.84%
COc1ccc(C(=O)NCC2(N3CCCCC3)CCCCC2)c(OC)c1OC | inactive: 3.89%
CC(C)(C)OC(=O)N1CCC(N(C(=O)c2ccccc2)c2ccc(F)cc2)CC1 | inactive: -2.22%
CSc1ccccc1C(=O)NCC1(N2CCCCC2)CCCCC1 | inactive: -8.64%
O=C(NCC1(N2CCOCC2)CCCCC1)c1cc2ccccc2o1 | inactive: 6.6%
O=C(NCC1(N2CCCCC2)CCCCC1)c1ccc(Cl)nc1 | inactive: 2.84%
Cc1cc(C)cc(N(C(=O)c2ccccc2)C2CCN(C(=O)OC(C)(C)C)CC2)c1 | inactive: 2.41%
CCOC(=O)N1CCC(Nc2ccc(OC)cc2)CC1 | inactive: 1.58%
N#CC1(Nc2ccccc2)CCN(Cc2ccccc2)CC1 | inactive: -2.71%
O=C(NCC1(N2CCCCC2)CCCCC1)c1ccc(Cl)s1 | inactive: 1.19%
O=C(OC1CN2CCC1CC2)C1c2ccccc2Oc2ccccc21 (stereo not drawn) | inactive: -2.04%
COc1ccc(Cl)cc1C(=O)NCC1(N2CCOCC2)CCCCC1 | inactive: 4.34%
CCOc1ccc(C)cc1CN(CCCl)CCCl | inactive: -6.02%
O=C(NCC1(N2CCCCC2)CCCCC1)c1ccc(F)cc1 | inactive: -1.93%
COc1ccc(NC2CCN(CCc3ccccc3)CC2)c(OC)c1 | inactive: 1.18%
CCOC(=O)N1CCC(Nc2cccc(C)c2)CC1 | inactive: 6.41%
Cc1ccc(OCC(C)C)c(CN(CCCl)CCCl)c1 | inactive: -0.24%
O=C(NCC1(N2CCCCC2)CCCCC1)c1ccc(OC(F)F)cc1 | inactive: -5.25%
O=C(NCC1(N2CCCCC2)CCCCC1)c1cccc([N+](=O)[O-])c1 | inactive: 0.75%

SMILES | inhibition
CCN1CCC(Nc2ccc(Cl)cc2)CC1 | inactive: 2.81%
N#CC1(Nc2ccccc2)CCN(CCc2ccccc2)CC1 | inactive: 6.09%
O=C(NCC1(N2CCCCC2)CCCCC1)c1cccc(C(F)(F)F)c1 | inactive: 1.97%
CN1CCN(CCOC(=O)C(O)(c2ccccc2)c2ccccc2)CC1 | inactive: 0.5%
COc1ccc(NC2CCN(C(=O)OC(C)(C)C)CC2)cc1 | inactive: 3.77%
COc1cc(C(=O)NCC2(N3CCCCC3)CCCCC2)ccc1OC(F)F | inactive: 1.79%
O=C(NCC1(N2CCOCC2)CCCCC1)c1cc(=O)[nH]c2ccccc12 | inactive: -3.69%
COc1ccc(CN(CCCl)CCCl)cc1Cl | inactive: -0.25%
CN(C)c1cccc(C(=O)NCC2(N3CCCCC3)CCCCC2)c1 | inactive: -5.04%
CC(C)c1ccc(NC2CCN(C(=O)OC(C)(C)C)CC2)cc1 | inactive: 5.73%
COc1cc(OC)c(C(=O)NCC2(N(C)C)CCCCC2)cc1OC | inactive: 1.88%
O=C(NCC1(N2CCOCC2)CCCCC1)c1cc(F)c(F)cc1Cl | inactive: 7.18%
CN1CCC(Nc2cccc(F)c2)CC1 | inactive: -3.74%
O=C(NCC1(N2CCCCC2)CCCCC1)c1cncc(Br)c1 | inactive: 2.97%
O=C(NCC1(N2CCOCC2)CCCCC1)c1cc(Br)ccc1Cl | inactive: -6.65%
COc1cc(C(=O)NCC2(N3CCOCC3)CCCCC2)cc(OC)c1C | inactive: 3.49%
COc1ccc(C(=O)NCC2(N3CCOCC3)CCCCC2)cc1OC | inactive: -1.08%
N/C(=N\O)c1c(N)no[n+]1[O-] | inactive: -3.02%
CCOC(=O)N1CCC(Nc2ccc(C)cc2)CC1 | inactive: -4.25%
CCc1cc(C(=O)NCC2(N3CCCCC3)CCCCC2)sc1C | inactive: -3.3%
O=C(OC1CN2CCC1CC2)C1c2ccccc2C=Cc2ccccc21 (stereo not drawn) | inactive: 5.93%

SMILES | inhibition
CC(C)(C)OC(=O)N1CCC(N(C(=O)c2ccccc2)c2ccc(Cl)cc2)CC1 | inactive: -0.05%
N#Cc1ccc(C(=O)NCC2(N3CCCCC3)CCCCC2)cc1 | inactive: 7.09%
c1ccc(CN2CCC(Nc3ccccc3)CC2)cc1 | inactive: -1.1%
CCCN1CCC(Nc2cc(OC)cc(OC)c2)CC1 | inactive: 1.81%
CN(C)C1(CNC(=O)c2cccc(C#N)c2)CCCCC1 | inactive: -8.69%
COc1cc(OC)cc(C(=O)NCC2(N3CCCCC3)CCCCC2)c1 | inactive: -1.99%
Cc1ccc(C(=O)NCC2(N3CCCCC3)CCCCC2)o1 | inactive: 2.71%
Fc1ccccc1NC1CCN(Cc2ccccc2)CC1 | inactive: 5.84%
CCN1CCC(Nc2cccc(F)c2)CC1 | inactive: 4.73%
O=C(NCC1(N2CCCCC2)CCCCC1)c1ccco1 | inactive: -4%
CN(C)c1ccc(C(=O)NCC2(N3CCCCC3)CCCCC2)cc1 | inactive: 7.98%
CCOc1ncccc1C(=O)NCC1(N2CCOCC2)CCCCC1 | inactive: 2.77%
CN1CCC(Nc2ccc(F)c(Cl)c2)CC1 | inactive: 1.92%
CCCOc1ccc(C(=O)NCC2(N(C)C)CCCCC2)cc1 | inactive: 3.27%
CC(C)(C)OC(=O)N1CCC(Nc2ccccc2)CC1 | inactive: -8.33%
O=C(O)C1(Nc2ccccc2)CCN(Cc2ccccc2)CC1 | inactive: 6.68%
CCC(CO)(C(=O)OC1CN2CCC1CC2)c1ccccc1 (stereo not drawn) | inactive: -0.42%
COc1cc(OC)cc(C(=O)NCC2(N3CCOCC3)CCCCC2)c1 | inactive: -1.04%
COc1cccc(C(=O)N(c2cc(C)cc(C)c2)C2CCN(C(=O)OC(C)(C)C)CC2)c1 | inactive: -5.35%
CCCOc1ccc(C)cc1CN(CCCl)CCCl | inactive: -2.97%
CN1CCC(Nc2ccc(Cl)cc2)CC1 | inactive: 9.59%
